For experiment [1], the target named is human GST-TBCD (tubulin-specific chaperone D, GST tag kept) (human, UniProt Q9BTW9-1). Description: pull-down.
For experiment [2], the target named is human TBCD after removal of the GST tag with TEV protease (human, UniProt Q9BTW9-1). The experiment can be described thus: SEC. (In gel filtration, larger molecules generally elute earlier.)

B1: human ARL2 (ARF-like 2) (natural protein)
chain: MGLLTILKKMKQKERELRLLMLGLDNAGKTTILKKFNGEDIDTISPTLGFNIKTLEHRGFKLNIWDVGGQKSLRSYWRNYFESTDGLIWVVDSADRQRMQDCQRELQSLLVEERLAGATLLIFANKQDLPGALSSNAIREVLELDSIRSHHWCIQGCSAVTGENLLPGIDWLLDDISSRIFTAD
Take B1: the binding result in experiment [1] and in experiment [2] was “binds” each time.

The record behind these values is PMC5693757 (Journal of molecular biology, 2017).
